Assay results as given in patent US8067447B2, “Modulators of glucocorticoid receptor, AP-1, and/or NF-κB activity and use thereof” (Bristol-Myers Squibb Company, priority 2006, dated 2011).

Target: T1, human full-length glucocorticoid receptor (Homo sapiens, UniProt P04150)
T1 construct: a cell lysate containing recombinantly expressed human full-length glucocorticoid receptor; purchased PanVera Co., Madison, Wis; P2816
T1 sequence (P04150 1-777): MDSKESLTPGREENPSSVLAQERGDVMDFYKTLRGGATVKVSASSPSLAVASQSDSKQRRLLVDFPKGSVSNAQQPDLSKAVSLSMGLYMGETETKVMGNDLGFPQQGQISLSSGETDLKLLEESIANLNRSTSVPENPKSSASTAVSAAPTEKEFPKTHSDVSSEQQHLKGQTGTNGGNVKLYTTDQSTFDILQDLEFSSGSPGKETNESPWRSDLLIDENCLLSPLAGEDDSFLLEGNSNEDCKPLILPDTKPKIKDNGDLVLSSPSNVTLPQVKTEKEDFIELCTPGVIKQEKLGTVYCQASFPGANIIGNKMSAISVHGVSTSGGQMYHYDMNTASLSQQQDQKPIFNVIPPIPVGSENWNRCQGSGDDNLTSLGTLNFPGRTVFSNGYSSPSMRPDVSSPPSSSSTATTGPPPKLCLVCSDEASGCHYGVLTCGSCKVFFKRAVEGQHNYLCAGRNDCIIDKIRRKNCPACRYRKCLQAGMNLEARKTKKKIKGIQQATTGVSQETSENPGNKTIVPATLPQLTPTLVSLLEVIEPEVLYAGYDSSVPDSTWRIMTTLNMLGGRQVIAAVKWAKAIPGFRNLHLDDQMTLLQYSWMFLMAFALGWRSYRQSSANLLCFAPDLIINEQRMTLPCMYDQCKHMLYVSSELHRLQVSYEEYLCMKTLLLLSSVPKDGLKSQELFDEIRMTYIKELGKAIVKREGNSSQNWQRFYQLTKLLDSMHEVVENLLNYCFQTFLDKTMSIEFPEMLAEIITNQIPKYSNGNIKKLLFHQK
Test: Glucocorticoid Receptor Binding Assay (II), fluorescence polarization competitor kit (Fluormone GS1)
Conditions: cell lysate with recombinant human full-length GR, 1 nM Fluormone GS1, FP
Experimental: In order to measure the binding of compounds on the glucocorticoid receptor a commercially available kit was used (Glucocorticoid receptor competitor assay kit, PanVera Co., Madison, Wis., P2816). Briefly, a cell lysate containing recombinantly expressed human full-length glucocorticoid receptor was mixed with a fluorescently labeled glucocorticoid (1 nM Fluormone GS1) in the presence or absence of test compound. After one hour at room temperature, the fluorescence polarization (FP) of the samples were measured. […] Test molecules were analyzed in the concentration range from 2.4 nM to 40 microMolar.

With `CC(C(=O)Nc1nncs1)C(c1ccccc1)c1ccc2c(cnn2-c2ccc(F)cc2)c1` (single isomer, unassigned) [Example 141-isomerC, 3-(1-(4-Fluorophenyl)-1H-indazol-5-yl)-2-methyl-3-phenyl-N-(1,3,4-thiadiazol-2-yl)propanamide] the Ki was 0.48 nM.
Compound `CC(C(=O)Nc1nncs1)C(c1ccccc1)c1ccc2c(cnn2-c2ccc(F)cc2)c1` (single isomer, unassigned) [Example 141-isomerB, 3-(1-(4-Fluorophenyl)-1H-indazol-5-yl)-2-methyl-3-phenyl-N-(1,3,4-thiadiazol-2-yl)propanamide] has a Ki of 0.59 nM.
`CC(C(=O)Nc1nncs1)C(c1ccccc1)c1ccc2c(cnn2-c2ccc(F)cc2)c1` (single isomer, unassigned) [Example 141-isomerA, 3-(1-(4-Fluorophenyl)-1H-indazol-5-yl)-2-methyl-3-phenyl-N-(1,3,4-thiadiazol-2-yl)propanamide] showed a Ki of 44 nM.
`CC(C(=O)Nc1nncs1)C(c1ccccc1)c1ccc2c(cnn2-c2ccc(F)cc2)c1` (single isomer, unassigned) [Example 141-isomerD, 3-(1-(4-Fluorophenyl)-1H-indazol-5-yl)-2-methyl-3-phenyl-N-(1,3,4-thiadiazol-2-yl)propanamide] gave a Ki of 2.4 nM.

Target: T2, human glucocorticoid receptor (Homo sapiens, UniProt P04150)
T2 construct: purified human recombinant full-length glucocorticoid receptor (2 nM); purchased Invitrogen Part #2893
T2 sequence (P04150 1-777): T1 sequence (P04150 1-777)
Test: Glucocorticoid Receptor Binding Assay (I), fluorescence polarization competitor kit (Fluormone GS Red)
Conditions: purified human recombinant full-length GR 2 nM, 1 nM Fluormone GS Red, FP
Experimental: Briefly, purified human recombinant full-length glucocorticoid receptor (2 nM) was mixed with fluorescently labeled glucocorticoid (1 nM Fluormone GS Red) in the presence or absence of test compound. After two hour incubation at room temperature in the dark, the fluorescence polarization (FP) of the samples was measured. […] Test compounds were analyzed in the concentration range from 8.5E-05 μM to 5 μM.

Compared with `CC(C)CC(c1ccc2c(cnn2-c2ccc(F)cc2)c1)C(C)(C)C(=O)Nc1nncs1` (stereo not drawn) [Example 34, 3-(1-(4-Fluorophenyl)-1H-indazol-5-yl)-2,2,5-trimethyl-N-(1,3,4-thiadiazol-2-yl)hexanamide], `CC(C)(C(=O)Nc1nccs1)C(c1ccncc1)c1ccc2c(cnn2-c2ccc(F)cc2)c1` (stereo not drawn) [Example 36, 3-(1-(4-Fluorophenyl)-1H-indazol-5-yl)-2,2-dimethyl-3-(pyridin-4-yl)-N-(thiazol-2-yl)propanamide] is 1.6-fold higher in Ki: 7.5 nM for the first, 12 nM for the second. The first binds more tightly here.

`CC(C)n1ncc2cc(C(c3ccccc3)C(C)(C)C(=O)Nc3nncs3)ccc21` (stereo not drawn) [Example 63, 3-(1-isopropyl-1H-indazol-5-yl)-2,2-dimethyl-3-phenyl-N-(1,3,4-thiadiazol-2-yl)propanamide] and `CC(C)(C(=O)Nc1nncs1)C(c1ccccc1)c1ccc2c(cnn2C2CCCCCC2)c1` (stereo not drawn) [Example 78, 3-(1-cycloheptyl-1H-indazol-5-yl)-2,2-dimethyl-3-phenyl-N-(1,3,4-thiadiazol-2-yl)propanamide] are within 1.5-fold of each other in Ki: 10 nM for the first, 12 nM for the second.

`Cc1csc(NC(=O)C(C)(C)C(c2ccccc2)c2ccc3c(cnn3-c3ccc(F)cc3)c2)n1` (stereo not drawn) [Example 12, 3-(1-(4-fluorophenyl)-1H-indazol-5-yl)-2,2-dimethyl-N-(4-methylthiazol-2-yl)-3-phenylpropan-amide] was tested, and the Ki was 14 nM.
